Values of other authors as cited in patent US11224633B2, “Kit for treating sepsis and/or any systemic (SIRS) or damaging cellular hyperinflammation” (priority 2015, dated 2022).

Settings: in vivo; cited from earlier work

[Se] [selenium]
NOAEL No Adverse Effect Level determined in nutrition: 800 µg
